For this assay, the target named is T1, HDAC6 (Homo sapiens, UniProt Q9UBN7).
T1 construct: purchased BPS Biosciences
T1 sequence (Q9UBN7 1-1215): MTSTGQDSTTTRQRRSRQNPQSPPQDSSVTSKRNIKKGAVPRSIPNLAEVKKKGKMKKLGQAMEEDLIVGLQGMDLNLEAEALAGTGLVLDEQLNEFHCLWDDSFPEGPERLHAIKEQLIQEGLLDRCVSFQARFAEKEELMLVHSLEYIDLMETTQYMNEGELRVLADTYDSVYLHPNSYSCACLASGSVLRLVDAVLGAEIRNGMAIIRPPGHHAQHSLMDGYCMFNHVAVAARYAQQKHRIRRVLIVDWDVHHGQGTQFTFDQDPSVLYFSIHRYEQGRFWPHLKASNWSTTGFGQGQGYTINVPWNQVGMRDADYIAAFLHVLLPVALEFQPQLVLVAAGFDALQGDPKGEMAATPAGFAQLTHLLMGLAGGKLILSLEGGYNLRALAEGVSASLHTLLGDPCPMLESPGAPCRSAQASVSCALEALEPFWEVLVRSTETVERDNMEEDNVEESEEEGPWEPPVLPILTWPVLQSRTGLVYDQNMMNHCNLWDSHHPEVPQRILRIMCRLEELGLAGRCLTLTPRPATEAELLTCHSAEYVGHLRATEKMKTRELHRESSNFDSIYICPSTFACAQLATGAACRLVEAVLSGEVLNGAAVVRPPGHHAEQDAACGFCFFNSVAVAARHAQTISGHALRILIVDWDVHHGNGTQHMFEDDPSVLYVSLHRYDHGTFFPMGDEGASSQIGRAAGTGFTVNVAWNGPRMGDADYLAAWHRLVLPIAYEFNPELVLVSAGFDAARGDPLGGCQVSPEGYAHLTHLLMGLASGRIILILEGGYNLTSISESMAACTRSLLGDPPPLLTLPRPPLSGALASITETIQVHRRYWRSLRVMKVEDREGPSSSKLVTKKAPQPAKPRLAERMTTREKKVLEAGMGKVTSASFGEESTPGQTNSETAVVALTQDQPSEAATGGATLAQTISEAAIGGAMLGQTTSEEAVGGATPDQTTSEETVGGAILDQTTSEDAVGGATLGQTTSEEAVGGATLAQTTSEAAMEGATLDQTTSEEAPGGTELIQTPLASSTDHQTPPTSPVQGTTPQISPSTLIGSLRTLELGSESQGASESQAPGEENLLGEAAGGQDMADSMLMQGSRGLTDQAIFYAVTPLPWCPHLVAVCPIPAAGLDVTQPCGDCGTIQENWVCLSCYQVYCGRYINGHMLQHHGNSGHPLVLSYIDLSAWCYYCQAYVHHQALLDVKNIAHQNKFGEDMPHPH
Briefly: HDAC enzyme assays (HDAC6 selectivity). Format: biochemical. Here is the method:
Compounds for testing were diluted in DMSO to 50 fold the final concentration and a ten point three fold dilution series was made. The compounds were diluted in assay buffer (50 mM HEPES, pH 7.4, 100 mM KCl, 0.001% Tween-20, 0.05% BSA, 20 μM TCEP) to 6 fold their final concentration. The HDAC enzymes (purchased from BPS Biosciences) were diluted to 1.5 fold their final concentration in assay buffer. The tripeptide substrate and trypsin at 0.05 μM final concentration were diluted in assay buffer at 6 fold their final concentration. The final enzyme concentrations used in these assays were 3.3 ng/ml (HDAC1), 0.2 ng/ml (HDAC2), 0.08 ng/ml (HDAC3) and 2 ng/ml (HDAC6). The final substrate concentrations used were 16 μM (HDAC1), 10 μM (HDAC2), 17 μM (HDAC3) and 14 μM (HDAC6). Five μl of compound and 20 μl of enzyme were added to wells of a black, opaque 384 well plate in duplicate. Enzyme and compound were incubated together at room temperature for 10 minutes. Five μl of substrate was added to each well, the plate was shaken for 60 seconds and placed into a Victor 2 microtiter plate reader. The development of fluorescence was monitored for 60 min and the linear rate of the reaction was calculated. The IC50 was determined using Graph Pad Prism by a four parameter curve fit.

Regarding `O=C(CCCCCCNC(=O)c1cnc(N(c2ccccc2)c2ccccc2)nc1)NO` [Compound A, 2-(diphenylamino)-N-(7-(hydroxyamino)-7-oxoheptyl) pyrimidine-5-carboxamide], the “selective for HDAC6” value was found to be 11 fold.

Source of the values: patent US20200323849A1, “COMBINATIONS OF HISTONE DEACETYLASE INHIBITORS AND IMMUNOMODULATORY DRUGS” (Acetylon Pharmaceuticals, Inc., priority 2013, published 2020).
